# scFv variants of Ab-91 (heavy chain) against a SARS-CoV-2 spike peptide

Binding partner: SARS-CoV-2 spike HR2 peptide, sequence PDVDLGDISGINAS.

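Phage display of a naive human antibody library on the peptide gave the parent. Library AAYL51 holds single substitutions and randomly drawn double and triple substitutions in the CDRs. AlphaSeq pools MATa yeast showing the antibodies with MATalpha yeast showing the peptide. The frequency of each diploid, read from paired DNA barcodes, reflects how well the two displayed proteins bind. The ratio of observed to expected reads was calibrated, replicate by replicate, on BCL2-family standards whose Kd was known from biolayer interferometry. Each pool was mated in three replicate cultures.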

Ab-91 is the parent antibody, in scFv form: VL, then a (GGGGS)3 linker, then VH. The light chain is unchanged in all variants.
VL: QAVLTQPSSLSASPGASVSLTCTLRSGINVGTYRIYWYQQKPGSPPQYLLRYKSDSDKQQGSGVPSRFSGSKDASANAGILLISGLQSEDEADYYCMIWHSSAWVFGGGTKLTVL
VH: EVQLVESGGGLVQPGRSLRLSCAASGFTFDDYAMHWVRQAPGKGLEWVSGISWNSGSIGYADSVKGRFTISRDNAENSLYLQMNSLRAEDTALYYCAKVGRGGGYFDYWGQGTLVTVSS

Variants are written as CDR1, CDR2 and CDR3 of the heavy chain (limits as in the source). Parent: GFTFDDYAMH, GISWNSGSIGYADSVK, VGRGGGYFDY. Affinities are written as log10 Kd with Kd in nM; a lower number is a better binder. Where no diploid with the target was found in that replicate, the entry reads "ND": below detection, most likely a poor binder, though not proof of it. Empty control strains, which show no peptide, gave a signal in 21% of pairings with library AAYL51; the median was 4.54 and 95% of these signals were weaker than 3.26. No background was subtracted. For each scFv, signals with the empty controls are counted beside the result, with their mean in brackets. In this assay the parent's reference entry averaged 1.86; its copy inside this library read 0.88.

{"CDR-H1": "GFTFDDYAMH", "CDR-H2": "GISWNSGSIGYCDSVK", "CDR-H3": "VGRGWGYFDA", "replicates, log10 nM": "ND / ND / ND", "control signals": "0 of 9"}
{"CDR-H1": "GFTFDDYAMH", "CDR-H2": "GISWRSGSIGYADSWK", "CDR-H3": "VGRGYGYFDY", "replicates, log10 nM": "5.34 / ND / ND", "control signals": "3 of 9 (4.78)"}
{"CDR-H1": "GFTGDDEAMH", "CDR-H2": "GQSWNSGSIGYADSVK", "CDR-H3": "VGRGGGYFDY", "replicates, log10 nM": "ND / ND / ND", "control signals": "0 of 9"}
{"CDR-H1": "IFTFDDYAMH", "CDR-H2": "GISWNSGSIGYADSVK", "CDR-H3": "VGRGGGYFDY", "replicates, log10 nM": "ND / ND / ND", "control signals": "0 of 9"}
{"CDR-H1": "GFTFDDYAMH", "CDR-H2": "GIAWNSGSIGYADSVK", "CDR-H3": "VGRGGGQFDY", "replicates, log10 nM": "ND / 5.47 / 2.94", "control signals": "1 of 9 (3.55)"}
{"CDR-H1": "GFTFDDYAMH", "CDR-H2": "MISWNSGSIGYADEVK", "CDR-H3": "VGRGGGYFYY", "replicates, log10 nM": "ND / ND / 4.83", "control signals": "2 of 9 (3.97)"}
{"CDR-H1": "GFTFDDYAMH", "CDR-H2": "GISYNSGSILYAFSVK", "CDR-H3": "VGRGGGYFDY", "replicates, log10 nM": "ND / ND / ND", "control signals": "2 of 9 (5.25)"}
{"CDR-H1": "GFTHDDYFMH", "CDR-H2": "GISWNSGSIGYADSVK", "CDR-H3": "VGRGQGYFDY", "replicates, log10 nM": "ND / ND / ND", "control signals": "2 of 9 (3.94)"}
{"CDR-H1": "GFTFDDYAMH", "CDR-H2": "GISANSGSIGYADSVY", "CDR-H3": "VGRGGYYFDY", "replicates, log10 nM": "1.38 / 1.30 / 0.86", "control signals": "3 of 9 (4.21)"}
{"CDR-H1": "GFTFDDYAMH", "CDR-H2": "GISWNSGSIVWADSVK", "CDR-H3": "VGRGGGYFDQ", "replicates, log10 nM": "ND / ND / ND", "control signals": "3 of 9 (3.89)"}
{"CDR-H1": "GFTFDDYAMH", "CDR-H2": "DISWNDGSIGYADSVK", "CDR-H3": "VGRGGGYFFY", "replicates, log10 nM": "ND / 4.57 / ND", "control signals": "2 of 9 (4.85)"}
{"CDR-H1": "GFTFDDYAMM", "CDR-H2": "GISWNSGSGGYADLVK", "CDR-H3": "VGRGGGYFDY", "replicates, log10 nM": "ND / ND / ND", "control signals": "1 of 9 (4.90)"}
{"CDR-H1": "PFTFDDYAMH", "CDR-H2": "GISWNSGSIGYADMVK", "CDR-H3": "VGRGGGYFDE", "replicates, log10 nM": "4.17 / ND / ND", "control signals": "0 of 9"}
{"CDR-H1": "GFTFDDYAMH", "CDR-H2": "GISWNSGSIFYKDSVW", "CDR-H3": "VGRGGGYFDY", "replicates, log10 nM": "ND / 4.49 / ND", "control signals": "2 of 9 (4.30)"}
{"CDR-H1": "GFTFDDYAIH", "CDR-H2": "GISWNSGSIGYADSVK", "CDR-H3": "VGGGGGIFDY", "replicates, log10 nM": "4.55 / 5.15 / ND", "control signals": "1 of 9 (4.33)"}
{"CDR-H1": "GFTFDDLAMH", "CDR-H2": "GISWNSGSIGAADSVK", "CDR-H3": "VGRGWGYFDY", "replicates, log10 nM": "ND / 3.76 / ND", "control signals": "3 of 9 (4.56)"}
{"CDR-H1": "GFTFDDYVMH", "CDR-H2": "GISWNSGSIGYADSVK", "CDR-H3": "VGHSGGYFDY", "replicates, log10 nM": "ND / ND / ND", "control signals": "1 of 9 (3.05)"}
{"CDR-H1": "GFTFDDYAMH", "CDR-H2": "GISWLSGSLGYADSVK", "CDR-H3": "VGRGGGYADY", "replicates, log10 nM": "ND / ND / 3.38", "control signals": "1 of 9 (3.69)"}
{"CDR-H1": "GFTFADYAMH", "CDR-H2": "GISWNSGSKGIADSVK", "CDR-H3": "VGRGGGYFDY", "replicates, log10 nM": "1.47 / 1.32 / 1.09", "control signals": "4 of 9 (5.35)"}
{"CDR-H1": "GFTFADYAMH", "CDR-H2": "GISWNSGPIGYADSVK", "CDR-H3": "VQRGGGYFDY", "replicates, log10 nM": "4.87 / ND / 4.91", "control signals": "4 of 9 (4.63)"}
{"CDR-H1": "GFTFDDYAMH", "CDR-H2": "GILWNLGSIGYAKSVK", "CDR-H3": "VGRGGGYFDY", "replicates, log10 nM": "6.22 / 4.25 / ND", "control signals": "3 of 9 (4.22)"}
{"CDR-H1": "GFTFDDYAMH", "CDR-H2": "GISWNKGSIGYQDSLK", "CDR-H3": "VGRGGGYFDY", "replicates, log10 nM": "3.95 / ND / 4.82", "control signals": "2 of 9 (5.57)"}
{"CDR-H1": "GFTFDHYHMH", "CDR-H2": "GISWNSGSIGYADSVK", "CDR-H3": "VGRGGGYFYY", "replicates, log10 nM": "ND / ND / 5.27", "control signals": "3 of 9 (4.68)"}
{"CDR-H1": "GFTFDDDAMH", "CDR-H2": "GISWNSGSIGFADSVK", "CDR-H3": "VGRGGDYFDY", "replicates, log10 nM": "5.31 / ND / 4.31", "control signals": "1 of 9 (4.34)"}
{"CDR-H1": "CFTFDDYAMH", "CDR-H2": "GISWNSGSIGYADSVK", "CDR-H3": "VGRGGEYFDY", "replicates, log10 nM": "ND / 4.56 / ND", "control signals": "5 of 9 (4.19)"}
{"CDR-H1": "GFTFDDYAKH", "CDR-H2": "GISWNSGSCGYADSVK", "CDR-H3": "VGRGRGYFDY", "replicates, log10 nM": "3.36 / 5.06 / ND", "control signals": "3 of 9 (3.94)"}
{"CDR-H1": "GFTFDDYAMH", "CDR-H2": "GISWNSGKIGGADSVK", "CDR-H3": "VHRGGGYFDY", "replicates, log10 nM": "5.33 / 4.28 / 4.84", "control signals": "4 of 9 (4.65)"}
{"CDR-H1": "GFTFMDYAMH", "CDR-H2": "GISFNSGSIGYADPVK", "CDR-H3": "VGRGGGYFDY", "replicates, log10 nM": "0.90 / 0.75 / 0.24", "control signals": "0 of 9"}
{"CDR-H1": "GCTFDDYAMH", "CDR-H2": "FISWNSGTIGYADSVK", "CDR-H3": "VGRGGGYFDY", "replicates, log10 nM": "ND / ND / ND", "control signals": "1 of 9 (3.07)"}
{"CDR-H1": "GFTFDDYAMH", "CDR-H2": "GISWNSGSIGYADSHN", "CDR-H3": "VGRGGGYNDY", "replicates, log10 nM": "ND / ND / ND", "control signals": "2 of 9 (5.27)"}
{"CDR-H1": "GFTFDDYAMH", "CDR-H2": "GLSWNSGSIGYADSHK", "CDR-H3": "VGRGGGYFDY", "replicates, log10 nM": "4.74 / 5.31 / 5.68", "control signals": "8 of 9 (5.25)"}
{"CDR-H1": "GFTFDDYAMH", "CDR-H2": "GIWPNSGSIGYADSVK", "CDR-H3": "VRRGGGYFDY", "replicates, log10 nM": "ND / ND / ND", "control signals": "1 of 9 (4.37)"}

For reference, 5 entries of the list once more:

{"CDR-H1": "GFTFDDYVMH", "CDR-H2": "GISWNSGSIGYADSVK", "CDR-H3": "VGHSGGYFDY", "replicates, log10 nM": "ND / ND / ND", "control signals": "1 of 9 (3.05)"}
{"CDR-H1": "GFTFDDYAMH", "CDR-H2": "MISWNSGSIGYADEVK", "CDR-H3": "VGRGGGYFYY", "replicates, log10 nM": "ND / ND / 4.83", "control signals": "2 of 9 (3.97)"}
{"CDR-H1": "GFTGDDEAMH", "CDR-H2": "GQSWNSGSIGYADSVK", "CDR-H3": "VGRGGGYFDY", "replicates, log10 nM": "ND / ND / ND", "control signals": "0 of 9"}
{"CDR-H1": "GFTFDDYAMH", "CDR-H2": "GLSWNSGSIGYADSHK", "CDR-H3": "VGRGGGYFDY", "replicates, log10 nM": "4.74 / 5.31 / 5.68", "control signals": "8 of 9 (5.25)"}
{"CDR-H1": "GFTFDDYAMH", "CDR-H2": "GILWNLGSIGYAKSVK", "CDR-H3": "VGRGGGYFDY", "replicates, log10 nM": "6.22 / 4.25 / ND", "control signals": "3 of 9 (4.22)"}

From the AlphaSeq antibody data of Engelhart et al. 2022 (doi:10.1038/s41597-022-01779-4), copy in the FLAb collection.